This note sets out measurements from ChEMBL document CHEMBL2311488 (Bioorg Med Chem Lett, 2013).

Molecules are shown by their SMILES. Some results are limits rather than exact numbers.

Broadly, the amount remaining is the share of the starting amount still present when the sample was taken. A low value points to a greater loss.

One data set is filed under the species Rattus norvegicus. Nature of the data set: in vitro. The conditions noted are these: liver microsomes. (In general: Liver microsomes are vesicles of endoplasmic reticulum, rich in cytochrome P450 enzymes.)
A further data set in a line: in vitro. The conditions noted are these: human, liver microsomes.

In the case of `CCS(=O)(=O)c1ccc2[nH]c(Oc3ccc(-c4ccccn4)cc3)nc2c1`, the share remaining at 0.5 h in the data set filed under Rattus norvegicus came to 99.3%; in the data set “in vitro”, 99.1%.

In the case of `CCS(=O)(=O)c1ccc2[nH]c(Oc3ccccc3C(F)(F)F)nc2c1`, the values for the amount remaining at 0.5 h in the data set filed under Rattus norvegicus and in the data set “in vitro” were > 99.9% and 94.1%, respectively.
